Values of other authors, collected in patent US20220111042A1, “MANF as a Regulator of Immune System Function” (University of Massachusetts, priority 2014, published 2022).

Test system: MANF expression
Conditions: CTLL-2 cells, up to 24 hours following IL-2 stimulation; cited from earlier work

interleukin-2: cytokine that regulates T cell proliferation and differentiation
MANF expression levels: become elevated
